Four compounds from US20250129074A1, “CHIMERIC COMPOUND FOR TARGETED DEGRADATION OF ANDROGEN RECEPTOR PROTEIN, PREPARATION METHOD THEREFOR, AND MEDICAL USE THEREOF” (Jiangsu Hengrui Pharmaceuticals Co., Ltd., priority 2021, published 2025) can be followed below.

The chains behind the UniProt entries cited, without tags or fusion partners.
UniProt P10275, whole entry T878A: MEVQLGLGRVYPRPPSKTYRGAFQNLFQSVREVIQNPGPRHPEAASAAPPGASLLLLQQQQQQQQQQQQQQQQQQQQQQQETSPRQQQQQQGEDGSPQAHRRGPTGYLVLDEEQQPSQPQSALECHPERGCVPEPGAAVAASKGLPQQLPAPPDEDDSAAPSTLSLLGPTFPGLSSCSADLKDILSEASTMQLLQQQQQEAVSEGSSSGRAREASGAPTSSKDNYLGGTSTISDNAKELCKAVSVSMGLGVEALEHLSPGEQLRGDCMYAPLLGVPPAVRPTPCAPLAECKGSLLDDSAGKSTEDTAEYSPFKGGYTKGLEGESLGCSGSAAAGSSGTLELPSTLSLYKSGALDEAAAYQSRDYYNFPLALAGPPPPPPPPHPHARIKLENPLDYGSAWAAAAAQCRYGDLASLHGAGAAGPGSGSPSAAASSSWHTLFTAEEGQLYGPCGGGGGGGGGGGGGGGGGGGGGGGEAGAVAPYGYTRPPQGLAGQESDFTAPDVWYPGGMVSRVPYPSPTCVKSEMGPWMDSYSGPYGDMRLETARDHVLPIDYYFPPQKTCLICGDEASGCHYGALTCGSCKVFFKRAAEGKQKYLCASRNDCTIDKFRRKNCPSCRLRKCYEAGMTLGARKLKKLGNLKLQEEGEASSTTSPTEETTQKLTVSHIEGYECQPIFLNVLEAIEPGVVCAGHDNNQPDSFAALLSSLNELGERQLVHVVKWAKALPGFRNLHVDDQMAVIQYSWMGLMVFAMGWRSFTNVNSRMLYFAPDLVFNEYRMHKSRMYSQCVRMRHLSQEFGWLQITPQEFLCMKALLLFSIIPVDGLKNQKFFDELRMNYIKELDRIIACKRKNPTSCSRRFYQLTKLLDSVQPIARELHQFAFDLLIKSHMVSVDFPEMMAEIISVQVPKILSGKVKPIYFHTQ

Series [1] has as its target androgen receptor (AR) (Homo sapiens, UniProt P10275, T878A). In words: Degradation activity on androgen receptor in LNCaP cells (AR ELISA). It is filed as cell-based. Conditions: for Max (maximum AR degradation rate): 0.1 nM R1881, 24 hours; for DC50: read-out: LNCaP DC50, 0.1 nM R1881, 24 hours.
Series [2] can be described thus: Pharmacokinetic evaluation in SD rats. Conditions: i.g., 2.0 mg/kg. It is filed as in vivo.
For series [3], the system named is LNCaP cells. In words: Inhibition of LNCaP proliferation (CellTiter-Glo). It is filed as cell-based, human. Conditions: for Max (maximum proliferation inhibition rate): 0.1 nM R1881, six days; for IC50: read-out: LNCaP IC50, 0.1 nM R1881, six days.
The subject of series [4] is LNCap-FGC xenograft tumors. In words: Pharmacodynamic testing: LNCap-FGC subcutaneous xenograft in castrated CB17-SCID mice. It is filed as in vivo. Conditions: i.g.; for Mean tumor volume D 21 / Number of remaining animals/group / TGI D 21: qd/21 d. From the text:
To evaluate the inhibition of the growth of castration-resistant prostate cancer LNCap-FGC subcutaneous xenograft tumors in male CB17-SCID mice by compounds of the present disclosure.
• Example 15-1 compound; • Example 11-2 or 11-1 (longer retention time) compound; • ARV-110; and • 20% PEG400+75% (10% TPGS)+5% (1% HPMC K100LV) solution.
Test animals: CB17-SCID male mice, purchased from Beijing Vital River Laboratory Animal Technology Co., Ltd. (certificate No. SCXK(Beijing)2016-0006; animal certification No. 110011220107542683), weighing about 20.54-26.72 g on purchase. Housing conditions: 5 animals/cage, a 12/12-hour light/dark cycle, a constant temperature of 23±1° C. with humidity at 50 to 60%, ad libitum access to food and water.
0.2 mL (10×10^6 cells+Matrigel) of LNCaP FGC cells (Matrigel was added, in a 1:1 ratio by volume) in the logarithmic growth phase was subcutaneously inoculated into the right upper limb of each mouse. When the mean tumor volume reached 77 mm^3, male mice with stable tumor growth were selected and subjected to orchiectomy followed by three days of analgesic care. When the mean tumor volume reached 172 mm^3, grouping and administration were started. The day of grouping was defined as DO, and intragastric administration was started and performed once a day for 21 days. The 21th day after administration was defined as D21 (Table 7). For tumor-bearing mice, the tumor volume was measured with a vernier caliper and the body weight was measured with a balance twice a week, and data were recorded.
All data were plotted and statistically analyzed using Excel and GraphPad Prism 8 software.
The calculation formula for tumor volume (V) was: V=½×a×b^2, where a and b represent length and width, respectively.
Relative tumor proliferation rate T/C(%)=(T-T0)/(C-C0)×100 (%), where T and C represent the tumor volumes of a treatment group and the control group at the end of the experiment; T0 and C0 represent the tumor volumes at the beginning of the experiment.

As to `C[C@H]1CC2(CCN(c3ccc(C(=O)N4CCC(CN5CCN(c6cccc(NC7CCC(=O)NC7=O)c6)CC5)CC4)nc3)CC2)CN1c1ccc(C#N)c(Cl)c1` (single isomer, unassigned) [12-2 or 12-1 (longer retention time)], the “Max (maximum AR degradation rate)” value in series [1] was determined as 97%.
Take `C[C@H]1CC2(CCN(c3ccc(C(=O)N4CCC(CN5CCN(c6cccc(NC7CCC(=O)NC7=O)c6)CC5)CC4)cc3)CC2)CN1c1ccc(C#N)c(Cl)c1` (single isomer, unassigned) [11-2 or 11-1 (longer retention time)]: in series [1], the “Max (maximum AR degradation rate)” value is on record as 97% and the DC50 worked out at 1.6 nM. Besides, in series [2], the “Area under curve AUC0-t” value amounted to 685 ng·h/mL, the “Clearance rate CL/F” value was determined as 63.7 mL/min/kg, the “Half-life T½” value is reported as 6.26 h and the “Plasma concentration Cmax” value worked out at 77.1 ng/mL. Also, in series [3], the “Max (maximum proliferation inhibition rate)” value stood at 72% and the IC50 came out at 56 nM. The “effect on the body weight of the mice” value in series [4] (1.5, 5 and 15 mpk, once daily for 21 days) is “little effect”. In series [4] (1.5 mpk), the “Mean tumor volume D 21” value was determined as 587 mm^3, the “Number of remaining animals/group” value is recorded as 8/8 and the “TGI D 21” value is given as 71%. Moreover, in series [4] (5 mpk), the “Mean tumor volume D 21” value came to 147 mm^3, the “Number of remaining animals/group” value is recorded as 8/8 and the “TGI D 21” value is recorded as 102%. Besides, in series [4] (15 mpk), the “Mean tumor volume D 21” value is 120 mm^3, the “Number of remaining animals/group” value is given as 8/8 and the “TGI D 21” value is 104%.
For the compound `C[C@H]1CC2(CCN(c3ccc(C(=O)N4CCC(CN5CCN(c6cccc(NC7CCC(=O)NC7=O)c6)CC5)CC4)nc3)CC2)CN1c1ccc(C#N)c(Cl)c1` (single isomer, unassigned) [12-1 or 12-2 (shorter retention time)], in series [1], the “Max (maximum AR degradation rate)” value turned out to be 95% and the 50% degradation concentration (DC50) turned out to be 3.5 nM.
With `C[C@H]1CC2(CCN(c3ccc(C(=O)N4CCC(CN5CCN(c6cccc(NC7CCC(=O)NC7=O)c6)CC5)CC4)cc3)CC2)CN1c1ccc(C#N)c(Cl)c1` (single isomer, unassigned) [11-1 or 11-2 (shorter retention time)], in series [1], the “Max (maximum AR degradation rate)” value is 96% and the DC50 came out at 6.6 nM. For the same compound, in series [3], the “Max (maximum proliferation inhibition rate)” value worked out at 72% and the IC50 was 119 nM.
